IC50 data for one compound are collected here from ChEMBL document CHEMBL1777757, “Triazoloquinazolines as a novel class of phosphodiesterase 10A (PDE10A) inhibitors” (Bioorg Med Chem Lett, 2011).

By UniProt entry, the sequences of proteins in these tests, tags left out. Where a name states a change or a piece, a line headed by the entry shows the natural chain unless it says otherwise.
UniProt Q9Y233: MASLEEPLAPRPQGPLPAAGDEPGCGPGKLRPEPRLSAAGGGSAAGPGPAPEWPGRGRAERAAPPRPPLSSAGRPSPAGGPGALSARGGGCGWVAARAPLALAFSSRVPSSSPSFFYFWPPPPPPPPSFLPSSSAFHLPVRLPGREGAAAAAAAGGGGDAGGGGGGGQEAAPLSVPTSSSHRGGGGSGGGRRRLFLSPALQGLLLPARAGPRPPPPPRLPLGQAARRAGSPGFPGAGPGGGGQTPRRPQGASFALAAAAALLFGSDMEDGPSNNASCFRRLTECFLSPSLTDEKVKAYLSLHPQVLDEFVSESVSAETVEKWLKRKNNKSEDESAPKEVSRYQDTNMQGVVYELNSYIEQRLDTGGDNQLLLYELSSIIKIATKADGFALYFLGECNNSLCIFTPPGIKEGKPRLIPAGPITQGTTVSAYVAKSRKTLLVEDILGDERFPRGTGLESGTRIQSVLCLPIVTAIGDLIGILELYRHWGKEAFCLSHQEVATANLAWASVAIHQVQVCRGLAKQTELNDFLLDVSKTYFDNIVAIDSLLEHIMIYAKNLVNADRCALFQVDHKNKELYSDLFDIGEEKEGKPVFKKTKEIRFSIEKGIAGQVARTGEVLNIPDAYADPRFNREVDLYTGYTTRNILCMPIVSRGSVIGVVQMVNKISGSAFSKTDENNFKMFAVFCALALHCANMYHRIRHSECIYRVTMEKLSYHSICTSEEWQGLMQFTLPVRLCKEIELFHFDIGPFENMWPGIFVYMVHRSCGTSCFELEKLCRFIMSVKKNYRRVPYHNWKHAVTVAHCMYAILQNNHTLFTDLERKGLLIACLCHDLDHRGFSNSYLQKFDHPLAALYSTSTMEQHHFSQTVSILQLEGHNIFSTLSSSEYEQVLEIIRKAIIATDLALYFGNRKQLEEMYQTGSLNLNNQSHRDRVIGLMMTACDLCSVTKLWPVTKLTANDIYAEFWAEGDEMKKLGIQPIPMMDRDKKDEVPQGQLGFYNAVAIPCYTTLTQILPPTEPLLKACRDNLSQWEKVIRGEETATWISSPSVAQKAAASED

Molecules are shown by their SMILES.

The experiment deals with cAMP and cAMP-inhibited cGMP 3',5'-cyclic phosphodiesterase 10A (Homo sapiens, UniProt Q9Y233). The experiment in a line: Inhibition of PDE10A.

For `COc1ccc(Cc2nccc3cc(OC)c(OC)cc23)cc1OC` [PAPAVERINE], the midpoint of inhibition, the IC50, lay at 210 nM.

As usually defined, the IC50 is the concentration that inhibits the measured activity by half. A low value points to higher potency.
